# Yeast mating assay 1: variants of the scFv Ab-14

Antigen: PDVDLGDISGINAS, a 14-residue peptide of the SARS-CoV-2 spike HR2 region.

Parent scFv Ab-14: VH joined to VL by a (GGGGS)3 linker. Changes lie in the heavy chain CDRs alone.
VH: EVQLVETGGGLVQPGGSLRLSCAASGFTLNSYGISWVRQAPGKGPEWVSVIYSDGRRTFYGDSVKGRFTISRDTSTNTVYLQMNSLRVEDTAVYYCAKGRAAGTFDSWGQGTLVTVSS
VL: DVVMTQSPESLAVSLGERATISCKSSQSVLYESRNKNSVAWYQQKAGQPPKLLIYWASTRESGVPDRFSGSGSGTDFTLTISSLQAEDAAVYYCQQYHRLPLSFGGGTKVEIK

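Library AAYL49 holds single substitutions and randomly drawn double and triple substitutions in the CDRs. Affinity was read by AlphaSeq, a pooled yeast mating assay with surface-displayed partners. The frequency of each diploid, read from paired DNA barcodes, reflects how well the two displayed proteins bind. Read counts were normalised to the haploid input and turned into Kd by a linear fit to BCL2-family pairs of known affinity, for each replicate. Each pool was mated in three replicate cultures.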

Substitutions are numbered in sequence along the VH above, starting at 1 (not Kabat). All variants listed here change G99 of the VH, counted from its first residue. Values are log10 of the apparent Kd in nM; lower means stronger binding. A mean of the replicates is given; it leaves out those without a signal. An entry "nd" has no value in the source: the pair was not observed among the diploids in any replicate. This suggests poor binding but is not conclusive. Entries are sorted by rising average, undetected variants last.

The variant V64E G99L F105E showed 1.14 (3 of 3 replicates). For F27P G61T G99D, the assay gave 1.23 (3 of 3 replicates). For T58V G99T, the assay gave 1.28 (3 of 3 replicates). With G99R the result was 1.48 (3 of 3 replicates). The variant T28Q G99Y R100W gave 2.75 (3 of 3 replicates). For L29T G33N G99D, the assay gave 3.45 (1 of 3 replicates). The variant G99P T104R S107G gave 3.46 (1 of 3 replicates).

The variant V50T G99Q showed 3.54 (1 of 3 replicates). For T58M G99V, the assay gave 3.67 (1 of 3 replicates). The variant V64D G99E gave 4.15 (2 of 3 replicates). The variant Y60T G99V showed 4.24 (2 of 3 replicates). With N30G T58G G99S the result was 4.26 (2 of 3 replicates). With F27V D62L G99R the result was 4.27 (1 of 3 replicates). The variant D54G G99K gave 4.29 (1 of 3 replicates).

For N30F G99T A102S, the assay gave 4.31 (1 of 3 replicates). For D62T G99K, the assay gave 4.46 (1 of 3 replicates). The variant I51E R57L G99K gave 4.47 (1 of 3 replicates). For G33R K65E G99P, the assay gave 4.49 (1 of 3 replicates). With S63L G99M the result was 4.65 (2 of 3 replicates). The variant G33T V64M G99S showed 4.66 (2 of 3 replicates). For I51R G99P R100V, the assay gave 4.82 (1 of 3 replicates).

The variant K65I G99C G103N gave 4.95 (1 of 3 replicates). The variant I51A G99M G103I showed 5.55 (1 of 3 replicates). With S53L G99W T104V the result was 5.99 (1 of 3 replicates). For L29G S63E G99D, the assay gave nd (0 of 3 replicates). The variant R57E D62Q G99K showed nd (0 of 3 replicates). For I34N F59A G99A, the assay gave nd (0 of 3 replicates). The variant G33P G99Q R100I gave nd (0 of 3 replicates).

The variant G61R G99Y S107M gave nd (0 of 3 replicates). The variant S53D G55H G99W gave nd (0 of 3 replicates). For G99K G103N S107G, the assay gave nd (0 of 3 replicates). The variant G99I A101R S107R showed nd (0 of 3 replicates). For I51R T58W G99N, the assay gave nd (0 of 3 replicates). The variant I34C T58K G99C gave nd (0 of 3 replicates). With T58P G99C A101R the result was nd (0 of 3 replicates).

The variant S35I G99A gave nd (0 of 3 replicates). The variant G26W I34Q G99N showed nd (0 of 3 replicates). The variant G99Y D106G showed nd (0 of 3 replicates). For Y52W Y60E G99M, the assay gave nd (0 of 3 replicates). For I51G G99I A102M, the assay gave nd (0 of 3 replicates). The variant Y32P Y52W G99H gave nd (0 of 3 replicates). With D62Q K65A G99E the result was nd (0 of 3 replicates).

For I51G D62W G99D, the assay gave nd (0 of 3 replicates). With T28V Y32H G99C the result was nd (0 of 3 replicates).

The last 5 entries again:

Variant I51G G99I A102M gave nd (0 of 3 replicates).
Variant Y32P Y52W G99H gave nd (0 of 3 replicates).
Variant D62Q K65A G99E gave nd (0 of 3 replicates).
Variant I51G D62W G99D gave nd (0 of 3 replicates).
Variant T28V Y32H G99C gave nd (0 of 3 replicates).

For reference, the parent read 0.65 as the reference entry and 4.11 (one replicate of three) as a member of this library. Nonspecific signal, from three strains lacking the peptide, appeared in 15% of pairings of library AAYL49, centred on 4.06 (5% of these signals below 2.83); values are not corrected for it.

Data: MIT Lincoln Laboratory AlphaSeq set, Engelhart et al. 2022, doi:10.1038/s41597-022-01779-4, as distributed in FLAb.